Test results reported in US10988505B2.

Chains of the proteins cited; added tags and fusions are not shown. Residues count along the entry.
UniProt Q9Y5Y6, 615-855: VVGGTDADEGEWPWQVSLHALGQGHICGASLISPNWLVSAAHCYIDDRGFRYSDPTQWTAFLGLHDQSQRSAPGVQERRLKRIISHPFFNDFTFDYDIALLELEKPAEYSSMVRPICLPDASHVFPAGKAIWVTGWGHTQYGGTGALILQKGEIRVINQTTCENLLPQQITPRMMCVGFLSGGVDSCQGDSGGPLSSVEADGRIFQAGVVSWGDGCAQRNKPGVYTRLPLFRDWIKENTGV

Biological target: recombinant human matriptase (Homo sapiens (Human), UniProt Q9Y5Y6)
Assay: Matriptase inhibition, Ki determination
Assay type: biochemical
Conditions: purified recombinant human matriptase, Boc-Gln-Ala-Arg-AMC substrate, pH 7.4

## C[C@H](NC(=O)[C@H](CCC(N)=O)NC(=O)[C@@H](N)CCCNC(=N)N)C(=O)N[C@@H](CCCNC(=N)N)C(=O)c1nc2ccccc2s1 [Comparative #1]
  Ki: 0.0114 nM
